# US9440982B2 (Eolas Therapeutics, Inc., priority 2012, dated 2016)
# By UniProt entry, the sequences of proteins in these tests, tags left out.
# UniProt O43613, whole entry: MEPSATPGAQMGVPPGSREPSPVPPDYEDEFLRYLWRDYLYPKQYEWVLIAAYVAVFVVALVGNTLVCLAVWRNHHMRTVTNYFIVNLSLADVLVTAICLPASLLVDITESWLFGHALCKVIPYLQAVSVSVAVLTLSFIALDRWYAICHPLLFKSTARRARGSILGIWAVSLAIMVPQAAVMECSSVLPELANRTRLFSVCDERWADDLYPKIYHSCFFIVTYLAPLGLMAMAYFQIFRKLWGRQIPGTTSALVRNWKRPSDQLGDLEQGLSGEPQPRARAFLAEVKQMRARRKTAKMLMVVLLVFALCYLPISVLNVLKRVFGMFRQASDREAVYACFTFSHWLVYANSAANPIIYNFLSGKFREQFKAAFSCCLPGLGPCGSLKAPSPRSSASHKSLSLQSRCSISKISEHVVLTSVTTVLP
# Target: T1, OX1 (Homo sapiens, UniProt O43613)
# T1 construct: expressed in transfected cells; host or cells: CHO (CHO-OX1, kept under selection antibiotic)
# Test: Orexin receptor cell-based functional assay, [Ca2+]i by FLIPR, CHO-OX1 cells
# Conditions: CHO-OX1 cells, [Ca2+]i by FLIPR, antagonist dose-range 0.1 nM-10 μM, EC90 of OXA; read-out: OX1
row,IC50,SMILES
1,6 nM,"Cc1ccc(-n2nccn2)c(C(=O)N2CCC[C@H](C)[C@H]2CNc2ccc(C(F)(F)F)cn2)c1 (racemic) [Example A67, rac-trans-(3-Methyl-2-(((5-(trifluoromethyl)pyridin-2-yl)amino)methyl)piperidin-1-yl)(5-methyl-2-(2H-1,2,3-triazol-2-yl)phenyl)methanone]"
2,25 nM,"COc1ncc(-c2ccc(C)cc2C(=O)N2CCC[C@@H](C)[C@H]2CNc2ccc(C(F)(F)F)cn2)cn1 [Example A4, (2-(2-Methoxypyrimidin-5-yl)-5-methylphenyl)((2S,3R)-3-methyl-2-(((5-(trifluoromethyl)pyridin-2-yl)amino)methyl)piperidin-1-yl)methanone]"
3,5 nM,"Cc1ccc(-c2cncs2)c(C(=O)N2CCC[C@@H](C)[C@H]2CNc2ccc(C(F)(F)F)cn2)c1 [Example A25, ((2S,3R)-3-Methyl-2-(((5-(trifluoromethyl)pyridin-2-yl)amino)methyl)piperidin-1-yl)(5-methyl-2-(thiazol-5-yl)phenyl)methanone]"
4,9 nM,"Cc1ccc(-c2ccccn2)c(C(=O)N2CCC[C@@H](C)[C@H]2CNc2nc3cc(Cl)ccc3o2)c1 [Example A32, ((2S,3R)-2-(((5-Chlorobenzo[d]oxazol-2-yl)amino)methyl)-3-methylpiperidin-1-yl)(5-methyl-2-(pyridin-2-yl)phenyl)methanone]"
5,> 1000 nM,"Cc1nc(C(=O)N2CCC[C@H](C)[C@@H]2CNc2nc3ccccc3o2)c(-c2ccc(F)cc2)s1 [Example A42, ((2R,3S)-2-((Benzo[d]oxazol-2-ylamino)methyl)-3-methylpiperidin-1-yl)(5-(4-fluorophenyl)-2-methylthiazol-4-yl)methanone]"
6,> 1000 nM,"Cc1ccc(-c2cnn(C)c2)c(C(=O)N2CCC[C@@H](C)[C@H]2CNc2ccc(C#N)cn2)c1 [Example A45, 6-((((2S,3R)-3-Methyl-1-(5-methyl-2-(1-methyl-1H-pyrazol-4-yl)benzoyl)piperidin-2-yl)methyl)amino)nicotinonitrile]"
7,25 nM,"Cc1ccc(NC[C@@H]2[C@H](C)CCCN2C(=O)c2cc(C)ccc2-n2nccn2)nc1 [Example A48, ((2S,3R)-3-Methyl-2-(((5-methylpyridin-2-yl)amino)methyl)piperidin-1-yl)(5-methyl-2-(2H-1,2,3-triazol-2-yl)phenyl)methanone]"
8,> 1000 nM,"Cc1ccc(NC[C@@H]2[C@H](C)CCCN2C(=O)c2cc(C)ccc2-n2cnc(C(F)(F)F)n2)nc1 [Example A56, ((2S,3R)-3-Methyl-2-(((5-methylpyridin-2-yl)amino)methyl)piperidin-1-yl)(5-methyl-2-(3-(trifluoromethyl)-1H-1,2,4-triazol-1-yl)phenyl)methanone]"
9,> 1000 nM,"Cc1ccc(-n2cnc(C(F)(F)F)n2)c(C(=O)N2CCC[C@@H](C)[C@H]2CNc2ccc(F)cn2)c1 [Example A57, ((2S,3R)-2-(((5-Fluoropyridin-2-yl)amino)methyl)-3-methylpiperidin-1-yl)(5-methyl-2-(3-(trifluoromethyl)-1H-1,2,4-triazol-1-yl)phenyl)methanone]"

row,SMILES,IC50
1,"Cc1ccc(-c2cnn(C)c2)c(C(=O)N2CCC[C@H](C)[C@H]2CNc2ccc(C(F)(F)F)cn2)c1 (racemic) [Example A66, rac-trans-(3-Methyl-2-(((5-(trifluoromethyl)pyridin-2-yl)amino)methyl)piperidin-1-yl)(5-methyl-2-(1-methyl-1H-pyrazol-4-yl)phenyl)methanone]",150 nM

# Same assay, conditions: Table 2; CHO-OX1 cells, EC90 of OXA; read-out: IC50 Bioactivity OX1
row,IC50,SMILES
1,9 nM,"Cc1nc(C(=O)N2CCC[C@@H](C(F)(F)F)[C@H]2CNc2nc3ccccc3o2)c(-c2ccccc2)s1 (racemic) [Example 13, rac-cis-(2-((Benzo[d]oxazol-2-ylamino)methyl)-3-(trifluoromethyl)piperidin-1-yl)(2-methyl-5-phenylthiazol-4-yl)methanone]"
2,1 nM,"Cc1nc(C(=O)N2CCC[C@@H](C)[C@H]2CNc2ncc(Br)cn2)c(-c2ccc(F)cc2)s1 (racemic) [Example 15, rac-cis-(2-(((5-Bromopyrimidin-2-yl)amino)methyl)-3-methylpiperidin-1-yl)(5-(4-fluorophenyl)-2-methylthiazol-4-yl)methanone]"
3,1300 nM,"Cc1nc(C(=O)N2CCC[C@@H](C)[C@H]2CNc2nccc(Cl)n2)c(-c2ccc(F)cc2)s1 (racemic) [Example 20, rac-cis-(2-(((4-Chloropyrimidin-2-yl)amino)methyl)-3-methylpiperidin-1-yl)(5-(4-fluorophenyl)-2-methylthiazol-4-yl)methanone]"
4,60 nM,"Cc1cccc(NC[C@@H]2[C@H](C)CCCN2C(=O)c2nc(C)sc2-c2ccc(F)cc2)n1 (racemic) [Example 23, rac-cis-(5-(4-Fluorophenyl)-2-methylthiazol-4-yl)(3-methyl-2-(((6-methylpyridin-2-yl)amino)methyl)piperidin-1-yl)methanone]"
5,4 nM,"Cc1nc(C(=O)N2CCC[C@@H](C)[C@H]2CNc2nc3ccccc3o2)c(-c2ccc(F)cc2)s1 (racemic) [Example 24, rac-cis-(2-((Benzo[d]oxazol-2-ylamino)methyl)-3-methylpiperidin-1-yl)(5-(4-fluorophenyl)-2-methylthiazol-4-yl)methanone]"
6,< 100 nM,"Cc1nc(C(=O)N2C(C)CCCC2CNc2ncc(C(F)(F)F)cn2)c(-c2ccc(F)cc2)s1 (racemic) [Example 27, rac-(5-(4-Fluorophenyl)-2-methylthiazol-4-yl)(2-methyl-6-(((5-(trifluoromethyl)pyrimidin-2-yl)amino)methyl)piperidin-1-yl)methanone]"
7,< 10 nM,"Cc1nc(C(=O)N2C(C)CCCC2CNc2ncc(Cl)cn2)c(-c2ccc(F)cc2)s1 (racemic) [Example 28, rac-(2-(((5-Chloropyrimidin-2-yl)amino)methyl)-6-methylpiperidin-1-yl)(5-(4-fluorophenyl)-2-methylthiazol-4-yl)methanone]"
8,70 nM,"CC[C@@H]1CCCN(C(=O)c2nc(C)sc2-c2ccc(F)cc2)[C@@H]1CNc1nc2ccccc2o1 (racemic) [Example 77, rac-cis-(2-((Benzo[d]oxazol-2-ylamino)methyl)-3-ethylpiperidin-1-yl)(5-(4-fluorophenyl)-2-methylthiazol-4-yl)methanone]"
9,1 nM,"Cc1nc(C(=O)N2CCC[C@@H](C)[C@H]2COc2ccc(C(F)(F)F)cn2)c(-c2ccc(F)cc2)s1 (racemic) [Example 79, rac-cis-(3-Methyl-2-(((5-(trifluoromethyl)pyridin-2-yl)oxy)methyl)piperidin-1-yl)(5-(4-fluorophenyl)-2-methylthiazol-4-yl)methanone]"
10,< 10 nM,"CCc1cnc(OC[C@@H]2[C@H](C)CCCN2C(=O)c2nc(C)sc2-c2ccc(F)cc2)nc1 (racemic) [Example 81, rac-cis-(2-(((5-Ethylpyrimidin-2-yl)oxy)methyl)-3-methylpiperidin-1-yl)(5-(4-fluorophenyl)-2-methylthiazol-4-yl)methanone]"
11,100 nM,"Cc1nc(C(=O)N2CCC[C@@H](C)[C@H]2CNc2ccc(F)cn2)c(-c2ccc(F)cc2)s1 (racemic) [Example 85, rac-cis-(2-(((5-Fluoropyridin-2-yl)amino)methyl)-3-methylpiperidin-1-yl)(5-(4-fluorophenyl)-2-methylthiazol-4-yl)methanone]"
12,29 nM,"Cc1nc(C(=O)N2CCC[C@H](C)[C@H]2CNc2nc3ccccc3o2)c(-c2ccc(F)cc2)s1 (racemic) [Example 95, rac-trans-(2-((Benzo[d]oxazol-2-ylamino)methyl)-3-methylpiperidin-1-yl)(5-(4-fluorophenyl)-2-methylthiazol-4-yl)methanone]"
13,6 nM,"Cc1ccc(-n2nccn2)c(C(=O)N2CCC[C@@H](C)[C@H]2CNc2ncc(Cl)cn2)c1 (racemic) [Example 98, rac-cis-(2-(((5-Chloropyrimidin-2-yl)amino)methyl)-3-methylpiperidin-1-yl)(5-methyl-2-(2H-1,2,3-triazol-2-yl)phenyl)methanone]"
14,3 nM,"Cc1ccc(-n2nccn2)c(C(=O)N2CCC[C@@H](C)[C@H]2CNc2ccc(C(F)(F)F)cn2)c1 (racemic) [Example 114, rac-cis-(3-Methyl-2-(((5-(trifluoromethyl)pyridin-2-yl)amino)methyl)piperidin-1-yl)(5-methyl-2-(2H-1,2,3-triazol-2-yl)phenyl)methanone]"
15,88 nM,"O=C(NC[C@@H]1C[C@@H](O)CN1C(=O)c1ccccc1-c1ccccc1)c1cccc2cccnc12 [Example 4, N-(((2S,4R)-1-(Biphenylcarbonyl)-4-hdroxypyrrolidin-2-yl)methyl)quinoline-8-carboxamide]"
16,6 nM,"O=C(NC[C@@H]1C[C@H](O)CN1C(=O)c1ccccc1-c1ccccc1)c1cccc2cccnc12 [Example 126, N-(((2S,4S)-1-([1,1′-Biphenyl]-2-carbonyl)-4-hydroxypyrrolidin-2-yl)methyl)quinoline-8-carboxamide]"
17,8 nM,"CO[C@H]1C[C@@H](CNC(=O)c2cccc3cccnc23)N(C(=O)c2ccccc2-c2ccccc2)C1 [Example 127, N-(((2S,4S)-1-([1,1′-Biphenyl]-2-carbonyl)-4-methoxypyrrolidin-2-yl)methyl)quinoline-8-carboxamide]"
18,120 nM,"CO[C@@H]1C[C@@H](CNC(=O)c2cccc3cccnc23)N(C(=O)c2ccccc2-c2ccccc2)C1 [Example 129, N-(((2S,4R)-1-([1,1′-biphenyl]-2-carbonyl)-4-methoxypyrrolidin-2-yl)methyl)quinoline-8-carboxamide]"

row,SMILES,IC50
1,"Cc1ccc(-c2cnn(C)c2)c(C(=O)N2CCC[C@@H](C)[C@H]2CNc2ccc(C(F)(F)F)cn2)c1 (racemic) [Example 103, rac-cis-(3-Methyl-2-(((5-(trifluoromethyl)pyridin-2-yl)amino)methyl)piperidin-1-yl)(5-methyl-2-(1-methyl-1H-pyrazol-4-yl)phenyl)methanone]",4 nM

# Same assay, conditions: Table 6; racemate vs enantiomers; read-out: OX1 IC50
row,SMILES,IC50
1,"Cc1ccc(-c2cnn(C)c2)c(C(=O)N2CCC[C@@H](C)[C@H]2CNc2ccc(C(F)(F)F)cn2)c1 (racemic) [Example 103, rac-cis-(3-Methyl-2-(((5-(trifluoromethyl)pyridin-2-yl)amino)methyl)piperidin-1-yl)(5-methyl-2-(1-methyl-1H-pyrazol-4-yl)phenyl)methanone]",4 nM
